Test results as given in patent US20240336630A1, “MAP4K1 INHIBITORS” (Blueprint Medicines Corporation, priority 2021, published 2024).

Amino acid sequences for entries named in this document (tags omitted).
UniProt Q92918, whole entry: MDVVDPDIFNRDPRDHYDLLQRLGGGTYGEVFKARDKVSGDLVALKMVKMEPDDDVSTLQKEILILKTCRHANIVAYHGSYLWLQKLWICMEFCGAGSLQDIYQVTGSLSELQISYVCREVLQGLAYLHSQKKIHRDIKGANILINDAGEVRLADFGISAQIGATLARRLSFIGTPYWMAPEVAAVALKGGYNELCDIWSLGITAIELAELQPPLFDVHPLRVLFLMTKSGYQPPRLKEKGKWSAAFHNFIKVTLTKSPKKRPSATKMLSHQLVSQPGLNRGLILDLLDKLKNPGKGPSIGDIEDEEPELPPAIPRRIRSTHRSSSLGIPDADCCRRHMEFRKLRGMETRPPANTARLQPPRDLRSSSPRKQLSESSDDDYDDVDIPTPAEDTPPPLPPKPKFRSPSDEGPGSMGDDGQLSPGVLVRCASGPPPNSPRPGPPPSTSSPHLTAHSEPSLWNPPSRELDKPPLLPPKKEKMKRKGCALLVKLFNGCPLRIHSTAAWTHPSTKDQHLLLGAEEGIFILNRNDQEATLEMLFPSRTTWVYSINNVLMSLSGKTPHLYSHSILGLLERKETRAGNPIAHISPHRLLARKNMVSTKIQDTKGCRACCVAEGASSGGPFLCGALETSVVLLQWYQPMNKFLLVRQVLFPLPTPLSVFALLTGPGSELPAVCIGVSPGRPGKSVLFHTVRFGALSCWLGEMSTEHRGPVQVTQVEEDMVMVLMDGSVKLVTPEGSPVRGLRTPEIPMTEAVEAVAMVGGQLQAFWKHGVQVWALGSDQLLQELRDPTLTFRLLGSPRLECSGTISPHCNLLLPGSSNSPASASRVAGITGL

Tests used:
MAP4K1 (HPK1) = MAP4K1 (HPK1) (Homo sapiens, UniProt Q92918); assay: Inhibition of MAP4K1 biochemical enzymatic activity (EZReader 2 electrophoretic mobility shift); conditions: read-out: MAP4K1 IC50; HPK1 (Invitrogen), S6K2tide 1.5 μM, 120 min; ATP 26 μM or 1000 μM, not stated which for Table 3
Text: MAP4K1 (HPK1) and relevant off-target enzymatic activity was monitored using the Perkin Elmer electrophoretic mobility shift technology platform—the EZReader 2. […] Within the linear, steady-state phase of the kinase enzymatic reaction, the mixed pool of phosphorylated (product) and non-phosphorylated (substrate) peptides was passed through the microfluidic system of the PerkinElmer EZ Reader 2, under an applied electric potential difference. The presence of the phosphate group on the product peptide provided a difference in mass and charge between that of the substrate peptide, resulting in a separation of the substrate and product pools in the sample (Perrin et al. 2010). As the product and substrate peptide mixture passes the lasers within the instrument, these pools are detected (λex=488 nm, λem=568 nm) and resolved as separate peaks. The ratio between these peaks reflects the activity of the compound at that concentration, in that well, under those conditions.
Inhibitors were dissolved in 100% DMSO at a stock concentration of 10 mM. A 100×, 10-point, 4-fold serial dilution of each inhibitor was created in 100% DMSO either manually or on a Hamilton STAR liquid handler, starting at a relevant concentration, usually 1 mM. A volume of 0.130 μL of each concentration was transferred to the relevant wells of a 384-well plate (Greiner 781 201) in duplicate using a TTPLabtech Mosquito nano-litre dispenser. Using a Multidrop Combi, the remaining constituents of the kinase reaction were added to the 130 nL of dosed compound as follows (see table below for final reaction details):
Enzyme activity assays at the ^APPKM for ATP or 1 mM ATP: In each well of a 384-well plate, 0.1-15 nM of untreated enzyme was incubated in a total of 13 μL of buffer (100 mM HEPES pH 7.5, 0.015% Brij 35, 10 mM MgCl2, 1 mM DTT) with 1.5 μM fluorescent peptide and 20-1000 μM ATP, at 25° C., for 60-180 minutes in the presence or absence of a dosed concentration series of compound (1% DMSO final concentration). The kinase reactions were stopped by the addition of 70 μl of Stop buffer (100 mM HEPES pH 7.5, 0.015% Brij 35, 35 mM EDTA and 0.2% of Coating Reagent 3 (Caliper Lifesciences)). The plates were read on a Caliper EZReader 2 as described above.

[1] = tested on: Primary T Cell (expanded CD3+ T cells); assay: T cell enhancement of cytokines: IL2 measurement (HTRF) in expanded CD3+ T cells stimulated with anti-CD3/anti-CD28; conditions: read-out: IL-2 Primary T Cell EC50; plate-bound anti-CD3 and soluble anti-CD28, 24 h
Description: T cells are isolated from whole blood of healthy donors by immunomagnetic negative selection following manufacture's protocol (StemCell Technologies, human T cell isolation kit). Purity of isolated cells is assessed by flow cytometry and yields 95-98% CD3^+ T cells. For expansion of T cells, 1×10^6 cells/well are plated in serum free cell expansion media (ThermoFisher) containing 30U of recombinant human IL2 (R&D) and stimulated with 25 ul of CD3/CD28 beads (Invitrogen) in 24 well plates for 3-4 days. T cells are then expanded in 175 cm flasks and maintained at a cell density of 1 to 2.5×10^6 cells/ml days by addition of ⅔ of fresh media every 2-3 days. After 10-14 days, cells are frozen in BamBanker freezing media (Thermo) and stored in liquid nitrogen.
For IL2 measurement, expanded CD3^+ T cells are dispensed at 100K cells/well (cultured in X-VIVO 10 Serum-free media) and are stimulated with plate-bound anti-CD3 and soluble anti-CD28 in the presence of vehicle or compound of the disclosure at various concentrations for 24 h. As outlined in the manufacturer's protocol (Cisbio), 16 μL of conditioned media is transferred to a white 384-well low volume plate. Following a 24 h incubation with the anti-IL2 antibodies, the homogenous time resolved fluorescence (HTRF) is measured.

CCC(C)(O)c1cnc(OC)c2cnc(Nc3ccc4c(n3)[C@@H](C)C(C)(C)OC4=O)cc12 (single isomer, unassigned) [16]
IC50 (MAP4K1 (HPK1)): 0.61 nM

CCC(C)(O)c1cnc(OC)c2cnc(Nc3ccc4c(n3)[C@@H](C)C(C)(C)OC4=O)cc12 (single isomer, unassigned) [17]
EC50 [1]: 10 nM

COCC(O)c1cnc(OC)c2cnc(Nc3ccc4c(n3)[C@@H](C)C(C)(C)OC4=O)cc12 (single isomer, unassigned) [19]
IC50 (MAP4K1 (HPK1)): 14.3 nM

C[C@@H]1OC(=O)c2ccc(Nc3cc4c(C(C)(O)C5CC5)cnc(OC5CC5)c4cn3)nc2[C@H]1C (single isomer, unassigned) [26]
IC50 (MAP4K1 (HPK1)): 1.06 nM

C[C@@H]1c2nc(Nc3cc4c(C(C)(O)C5CC5)cnc(OC5CC5)c4cn3)ccc2C(=O)OC1(C)C (single isomer, unassigned) [38]
EC50 [1]: 273 nM
IC50 (MAP4K1 (HPK1)): 11.1 nM

C[C@@H]1c2nc(Nc3cc4c(C(C)(O)C5CC5)cnc(OC5CC5)c4cn3)ccc2C(=O)OC1(C)C (single isomer, unassigned) [39]
EC50 [1]: 47 nM
IC50 (MAP4K1 (HPK1)): 0.46 nM

C[C@@H]1c2nc(Nc3cc4c(C(C)(O)C5CC5)cnc(OCC(F)F)c4cn3)ccc2C(=O)OC1(C)C (single isomer, unassigned) [48]
IC50 (MAP4K1 (HPK1)): 39.5 nM

C[C@@H]1c2nc(Nc3cc4c(C(C)(O)C5CC5)cnc(OCC(F)F)c4cn3)ccc2C(=O)OC1(C)C (single isomer, unassigned) [49]
IC50 (MAP4K1 (HPK1)): 0.53 nM
